The results in this text go back to US20120329716A1 (UNIVERSITY OF MANITOBA, published 2012).

The test addresses Purified human recombinant renin (human, UniProt P00797 67-406). Kind of test: cell-based or functional assay.
Consider YR [SEQ ID NO. 8], for which the “RENIN INHIBITION %” value amounted to 15.1%.
Take FQ [SEQ ID NO. 12]: the “RENIN INHIBITION %” value was 8.64%.
For FK [SEQ ID NO. 11] the value was 8.92%; for EF [SEQ ID NO. 3], 22.4%.
For the molecule IR [SEQ ID NO. 1], the “RENIN INHIBITION %” value was found to be 49.1%.
In the case of KF [SEQ ID NO. 2], the “RENIN INHIBITION %” value was determined as 28.8%.
Turning to RF [SEQ ID NO. 10], the “RENIN INHIBITION %” value was 6.35%.
For the molecule IW [SEQ ID NO. 27], the “RENIN INHIBITION %” value stood at 69.2%.
Regarding FT [SEQ ID NO. 9], the “RENIN INHIBITION %” value was found to be 20.4%.
For LW [SEQ ID NO. 28] the value was 37.1%.
For NR [SEQ ID NO. 5] the value was 25.4%; for SF [SEQ ID NO. 7], 15.9%.
